The numbers were not newly measured in US20240189234A1, “SILICON PARTICLES FOR DRUG DELIVERY” (NACAMED AS, priority 2021, published 2024), which cites them from elsewhere.

For this data set the following is noted: calculated log P values from Foye's Principles of Medicinal Chemistry.

Consider `C[C@H](CCc1ccccc1)NC[C@H](O)c1ccc(O)c(C(N)=O)c1` [dilevalol], for which the “log P” value is 3.09.
`OCCN1CCN(CCCN2c3ccccc3Sc3ccc(C(F)(F)F)cc32)CC1` [fluphenazine]: the “log P” value is 3.92.

For orientation: log P means a log measure of how a compound divides between an organic and an aqueous phase.
